Results on one compound are retold here after patent US20120141461A1, “COMPOSITIONS AND METHODS FOR DIAGNOSING AND TREATING FIBROTIC DISORDERS” (THE REGENTS OF THE UNIVERSITY OF MICHIGAN, priority 2009, published 2012).

Amino acid sequences for entries named in this document (tags omitted).
UniProt Q9NPH5, whole entry, species assumed: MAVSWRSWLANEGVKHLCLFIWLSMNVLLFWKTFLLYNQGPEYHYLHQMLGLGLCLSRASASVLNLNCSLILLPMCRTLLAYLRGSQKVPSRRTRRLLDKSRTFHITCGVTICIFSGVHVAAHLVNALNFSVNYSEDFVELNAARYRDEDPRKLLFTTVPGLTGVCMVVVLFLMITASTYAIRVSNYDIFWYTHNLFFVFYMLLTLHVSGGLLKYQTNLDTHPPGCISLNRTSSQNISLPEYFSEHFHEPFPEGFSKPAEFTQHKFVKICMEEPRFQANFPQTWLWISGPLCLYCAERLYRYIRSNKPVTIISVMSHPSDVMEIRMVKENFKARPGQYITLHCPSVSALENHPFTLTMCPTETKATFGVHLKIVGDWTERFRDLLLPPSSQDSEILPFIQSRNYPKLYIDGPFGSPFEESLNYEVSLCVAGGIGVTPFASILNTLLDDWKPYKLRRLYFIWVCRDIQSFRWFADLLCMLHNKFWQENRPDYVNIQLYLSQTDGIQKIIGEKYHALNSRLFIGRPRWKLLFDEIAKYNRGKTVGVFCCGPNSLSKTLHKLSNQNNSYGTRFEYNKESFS

The target of this assay is NOX4 (Homo sapiens, UniProt Q9NPH5). The assay is described as follows: cell-based.

Structures are written as SMILES.

`c1ccc2c(c1)[I+]c1ccccc1-2` [DPI, diphenyleneiodonium chloride] showed an IC50 of under 500 nM.

Broadly, the IC50 is the midpoint of a concentration-inhibition curve. A low value points to inhibition by little substance.
